How the values were obtained:
[1] = In vitro plasma protein binding (equilibrium dialysis); conditions: human plasma
Protocol: Test Objective: To investigate the in vitro human plasma protein binding of RPL-554, Compound 1-2, Compound 10-2, Compound 67, and Compound 69.
Incubation conditions: test compound incubation time, 5 h; test compound final concentration, 0.5 µM; species, human; temperature, 37.0 °C.
Stock solutions of the test compounds and Warfarin were prepared, diluted, and added to the plasma matrix so that the final concentration of each test compound in the system was 10 µM, and the final concentration of Warfarin was 1 µM. Immediately after preparation, 50 µL of the sample was transferred into termination solution, and 50 µL of a blank buffer was added to obtain the T0 sample for recovery calculation.
For the test groups and system control group, 100 µL of plasma solution containing Warfarin or a test compound, or 100 µL of a buffer solution containing a test compound, was added to the donor chamber of an equilibrium dialysis device.
The donor and receiver chambers were incubated at 37 °C and 100 rpm for 5 h.
For the stability test group, each test compound was incubated with plasma or a blank buffer for 0 or 5 h.
At the incubation, 50 µL sample was collected from the donor chamber for each group, and 50 µL of a blank buffer was added. In addition, 50 µL sample was collected from the receiver chamber, and 50 µL of blank plasma was added, so that the final volume of each sample was 100 µL.
Methanol containing an internal standard was added to all samples to precipitate proteins. After centrifugation, the supernatant was collected, and the concentrations of the test compounds and Warfarin in the samples were determined by LC-MS/MS using relative quantification.

[2] = Liver microsomal incubation assay (metabolic stability)
Protocol: Test Objective: To evaluate the in vitro metabolic stability of RPL-554, Compound 1-2, Compound 10-2, Compound 67, and Compound 69.
Test System: Human liver microsomes.
Incubation conditions: test compound incubation time, 0, 30, 60, and 120 min; test compound final concentration, 0.5 µM; microsomal protein concentration, 0.5 mg/mL; NADPH and UDPGA concentrations, 1.0 mM; temperature, 37.0 °C.
A mixed working solution of testosterone and 7-hydroxycoumarin was prepared.
A mixed solution of NADPH and UDPGA was prepared and prewarmed at 37 °C in a shaking water bath before use.
Liver microsomes were thawed and diluted with a buffer.
The prepared test compound solution and liver microsome suspension were added to each well of a incubation plate.
The experiment was divided into three groups, and the corresponding components were added to each group. Test group=test compound + microsomes + coenzyme. Test compound negative control group (NC)=test compound + microsomes + buffer. Positive control group=phase I and phase II substrates + microsomes + coenzyme.
All samples were incubated at 37 °C. At each designated termination time point, each reaction was stopped by adding pre-chilled methanol containing an internal standard, and the time was recorded.
After thorough mixing, all samples were centrifuged at 4,000 rpm for 10 min. The supernatants were collected and analyzed by LC-MS/MS.

[3] = test system: Caco-2 cells; test: Caco 2 cell permeability assay
Protocol: Test Objective: To evaluate the Caco2 cell permeability to RPL-554, Compound 1-2, Compound 10-2, Compound 67, and Compound 69.
Cell Line: Human colorectal adenocarcinoma cell line.
Incubation conditions: Test system, Caco-2 cells; incubation time, 2 h; test compound final concentration, 1 µM; temperature, 37.0 °C.
Quality control before the permeability assay: Before the assay, the transepithelial electrical resistance of the cells was measured using a resistance meter, and the apparent transepithelial resistance of the cell monolayer was calculated.
Permeability assay: Before the assay, the culture medium was aspirated from the culture plate, and the cells were washed three times with HBSS buffer prewarmed at 37°C (Apical side and Basal side); After the buffer in the plate was aspirated, 800 µL of HBSS buffer prewarmed at 37 °C was added to the B side, and 500 µL of propranolol solution (PC), nadolol solution (SC), or a test compound solution prewarmed at 37 °C was added to A side. A 100 µL solution was then taken from the A side as the 0 h apical sample and stored at -20 °C until analysis. The culture plate was incubated at 37°C for 120 min. At the end of incubation, a 100 µL solution was collected from each sample at both A side and B side as the 120 min sample and stored at -20 °C until analysis. All samples were mixed with internal-standard-containing methanol at a ratio of 1:4 and analyzed by LC-MS/MS. After incubation, 100 µL was taken from the basal side and transferred to a black 96-well plate. An LFY standard curve was prepared, and fluorescence was measured using a fluorescence microplate reader at an excitation wavelength of 485 nm.
Note: The A side contained 10 µM Lucifer Yellow. All test compound buffers contained 0.1% BSA.

[4] = test system: Salmonella typhimurium TA97a, TA98, TA100, TA102, and TA1535; test: Mutagenicity and bacterial toxicity in Salmonella typhimurium (reverse mutation, dose-range finding); conditions: 5000 to 50 µg/plate
Protocol: The bacterial toxicity and potential mutagenicity of Compound 1-2, Compound 10-2, Compound 12-1, and Compound 19 to Salmonella typhimurium were evaluated separately to determine the optimal dose ranges for subsequent mutagenesis assays in Salmonella typhimurium.
The assay was performed using five histidine auxotrophic Salmonella typhimurium strains, namely TA97a, TA98, TA100, TA102, and TA1535, supplied by JOINN Laboratories (Suzhou) Co., Ltd. Each bacterial strain system was treated with the test compound at doses of 5000, 1500, 500, 150, and 50 µg/plate in the absence or presence of metabolic activation. A vehicle control group, DMSO, was also included. For each test point, duplicate plates were set both in the presence of metabolic activation (+S9, with S9 mix) and in the absence of metabolic activation (-S9, without S9 mix). Strains TA97a, TA98, TA100, and TA1535 were incubated at 37°C for approximately 48 h, and strain TA102 was incubated at 37°C for approximately 72 h. Revertant colonies were counted for each plate, and the background lawn was examined microscopically. […] For strains TA98, TA102, and TA1535, toxicity could not be evaluated with 5000 µg/plate of the test compound because precipitation was observed on the plates. No obvious bacterial toxicity was observed under the other test conditions. […] For strains TA97a, TA98, TA100, TA102, and TA1535 with 5000 µg/plate of the test compound, for strains TA97a, TA98, TA102, and TA1535 with 1500 µg/plate of the test compound, and for strain TA102 with 500 µg/plate of the test compound, colonies could not be counted due to precipitation on the plates, and toxicity could not be evaluated. No obvious bacterial toxicity was observed under the other test conditions. […] For strains TA97a, TA98, and TA102 both in the presence and absence of metabolic activation, and for strain TA100 in the presence of metabolic activation, colonies could not be counted due to precipitation, and toxicity could not be evaluated. No obvious bacterial toxicity was observed under the other test conditions. […] No obvious bacterial toxicity was observed under the other test conditions.

COc1cc2c(cc1OC)-c1cc(N(c3c(C)cc(C)cc3C)C(C)CNC(=O)c3ncc[nH]3)nc(=O)n1CC2 (single isomer, unassigned) [Compound 10-2]
plasma protein binding ratio (in words) [1]: high plasma protein binding ratio | Protein Binding Ratio (%) Average ([1]; 5 h, 37.0 °C): 96.6% | Protein Binding Ratio (%) Sample 1 ([1]; 5 h, 37.0 °C): 96.3% | Protein Binding Ratio (%) Sample 2 ([1]; 5 h, 37.0 °C): 96.9% | Metabolic Type (Fast/Moderate/ Slow) ([2]; human liver microsomes): Fast | CLint ([2]; human liver microsomes, 0.5 µM): > 57.9 mL/min/kg | T1/2 ([2]; human liver microsomes, 0.5 µM): < 30 min | T120 - Remaining (% of 0 min) ([2]; human liver microsomes, 0.5 µM, 120 min, NADPH and UDPGA): 4.53 % of 0 min | T1/2 (min), value in parentheses ([2]; human liver microsomes, 0.5 µM, figure printed in parentheses behind the bound <30): 11.8 min | CLint (mL/min/kg), value in parentheses ([2]; human liver microsomes, 0.5 µM, figure printed in parentheses behind the bound >57.9): 147 mL/min/kg | T120 NC - Remaining (% of 0 min- NC) ([2]; negative control without coenzyme (test compound + microsomes + buffer), 120 min): 79.3 % of 0 min- NC | Recovery (%) ([3]; Caco-2, 1 µM, 2 h): 87.7% | Papp/ 10^-6 cm/s ([3]; Caco-2, A-B, 1 µM, 2 h, 37.0 °C): 0.0477 10^-6 cm/s | Papp (A-B) ([3]; Caco-2, test concentration of 1 µM): 0.0477 ×10⁻⁶ cm/s | mutagenic activity ([4]; in the absence or presence of metabolic activation (S9)): no mutagenic activity | bacterial toxicity ([4]; in the presence and absence of metabolic activation (S9)): bacterial toxicity was observed in strain TA100 with 1500 µg/plate

From patent EP4825857A1, “TRICYCLIC FUSED HETEROCYCLIC PDE3/4 DUAL INHIBITOR, AND PREPARATION AND USE THEREFOR” (dated 2026)
